Measured values taken from PMC9370035, “Identification of 3-Oxindole Derivatives as Small Molecule HIV-1 Inhibitors Targeting Tat-Mediated Viral Transcription” (Molecules, 2022).

Test system: HIV-1NL4-3
Assay: HIV-1 infectivity assay in TZM-bl cells (F-Luc under HIV-1 LTR)
Assay type: cell-based
Source text: TZM-bl cells (also referred as JC53BL-13) expressing human CD4, CXCR4, and CCR5 in order to facilitate HIV-1 infection, which contain the firefly luciferase (F-Luc) gene under the control of HIV-1 long terminal repeat (LTR) promoter was used to determine inhibitory effect of the compounds on HIV-1 infection, as described previously with minor modifications. […] Without replacement of a culture medium, the cells were then infected with the HIV-1NL4-3 strain at a multiplicity of infection (MOI) of 1 to determine the exact inhibitory effect of compounds on a single round infection. After 48 h, the inhibitory effect of the compounds was determined using a Bright Glo luciferase assay kit (Promega). The infectivity data are presented as a percentage relative to the DMSO control (vehicle). The inhibitory effects of the compounds on viral replication were determined with some minor modifications, as described previously. […] PBMCs were pre-activated with phytohemagglutinin M (PHA-M) for 3 days. The pre-activated 4 × 10^5 of PBMCs were washed with fresh media to remove excess PHA-M and then infected with HIV-1NL4-3 or HIV-1AD8 as that of A3.01 infection.

| SMILES | SI (selectivity index, the ratio of IC50 to CC50) |
| --- | --- |
| CCOC(=O)C1(C/C=C/Cl)Nc2cccc(C)c2C1=O (stereo not shown) [Compound 6a, Ethyl (E)-2-(3-chloroallyl)-4-methyl-3-oxindole-2-carboxylate] | 6.38 |
| COC(=O)C1(C/C=C/Cl)Nc2cc(C)cc(C)c2C1=O (stereo not shown) [Compound 6f, Methyl (E)-2-(3-chloroallyl)-4,6-dimethyl-3-oxindole-2-carboxylate] | 111.37 |
| COC(=O)C1(CC=C(Cl)Cl)Nc2cc(C)cc(C)c2C1=O (stereo not shown) [Compound 6g, Methyl 2-(3,3-dichloroallyl)-4,6-dimethyl-3-oxindole-2-carboxylate] | 34.19 |
| O=C1Nc2ccc(Cl)cc2[C@@](C#CC2CC2)(C(F)(F)F)O1 [EFV, efavirenz, reference compound] | >683.86 |
